Measured affinities in a library of Ab-91 heavy chain variants

Source: Engelhart et al. 2022 (doi:10.1038/s41597-022-01779-4), MIT Lincoln Laboratory and A-Alpha Bio; data file from the FLAb repository.

Target: peptide PDVDLGDISGINAS, taken from heptad repeat 2 (HR2) of SARS-CoV-2 spike.

Parent: Ab-91, a human scFv built as VL, three GGGGS repeats, VH. Only the CDRs of the heavy chain vary.
VL: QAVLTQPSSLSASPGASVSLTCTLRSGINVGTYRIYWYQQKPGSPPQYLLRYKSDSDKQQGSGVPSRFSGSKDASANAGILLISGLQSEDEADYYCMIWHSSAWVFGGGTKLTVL
VH: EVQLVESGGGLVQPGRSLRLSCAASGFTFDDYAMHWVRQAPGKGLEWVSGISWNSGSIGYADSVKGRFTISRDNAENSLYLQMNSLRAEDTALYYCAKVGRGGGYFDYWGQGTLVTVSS

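Phage display of a naive human antibody library on the peptide gave the parent. In library AAYL51, one, two or three CDR residues were substituted; doubles and triples were drawn at random. Affinity was read by AlphaSeq, a pooled yeast mating assay with surface-displayed partners. Mating (16 h, 30 °C) was followed by selection of diploids and sequencing of their barcodes. A regression on co-assayed BCL2-family reference pairs converts the normalised counts of each replicate to an apparent Kd. Mating was done three times.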

Each variant is given by its three heavy chain CDRs, as the data file delimits them; those of the parent are GFTFDDYAMH, GISWNSGSIGYADSVK, VGRGGGYFDY. Every variant below is changed at R101 of the VH (sequential numbering). Scale: log10 of Kd in nM, estimated from mating counts; low values are strong binders. "nd" marks a missing value. The strain was present, yet no cells mated with the target were sequenced in that replicate, which points to weak or no binding. Three control strains display no target. For library AAYL51, 21% of the pairings with them gave a signal, with a median of 4.54 and one signal in twenty below 3.26, so weak values seen in few replicates may be background. For reference, the parent read 1.86 as the reference entry and 0.88 as a member of this library.

The variant GFTFDDYAMH | GISWNSGSIGYWDSVK | VNWGGGYFDY gave nd, nd, nd. For GFTFDDYAMC | GISWNSGSIGYADSVK | VGYGGGYFCY, the assay gave 3.50, nd, nd. With GFTFDDNAMH | GISWNSGSIGYADSVK | VGDGGGYFDY the result was 3.61, 4.61, nd. The variant WFTFDDYAMH | GISWNSGSILYADSVK | VGPGGGYFDY showed nd, nd, nd. The variant GFTFDDYAMH | GQSWNSGSIGYADSVK | VGGGGGYFYY gave nd, nd, nd. The variant GFTFDDYAMH | GISWNSGSIGYADSVK | VGMGGKYADY gave nd, nd, 4.89. The variant GFTFDDYAMH | GISWNSGSIGYQDSVK | VGFGGNYFDY gave nd, nd, nd. The variant GFTFDDYCMH | GISWSSGSIGYADSVK | VGTGGGYFDY showed nd, nd, 4.28.

With LFTFDDYAMH | GISWNSGSIGYADFVK | VGDGGGYFDY the result was 6.02, 4.13, nd. The variant GFTFDDYAMH | GISWNSGSIGYADSVK | MGFGGTYFDY gave 3.15, nd, nd. With GFTSDDYAMW | GISWNSGSIGYADSVK | VGWGGGYFDY the result was 5.11, 5.66, 5.16. The variant GFTFDDYAMH | GISWNSGSYEYADSVK | VGNGGGYFDY showed nd, nd, nd. With GFTFDDYAMH | HISWNVGSIGYADSVK | VGFGGGYFDY the result was nd, nd, nd. The variant GFTFDDYAMH | GISWNSGSRGYADSVK | VGKGGYYFDY gave 2.27, 2.25, 2.65. For GFTFDDYALH | GESWNSGSIGYADSVK | VGWGGGYFDY, the assay gave nd, nd, nd. With GFPFDDYAMH | GISWNSGMIGYADSVK | VGDGGGYFDY the result was nd, nd, nd.

The variant GFTFDDYAMH | GISNNSGSIGEADSVK | VGTGGGYFDY gave 3.80, 4.32, nd. For GHTFDDYAMH | GISWNSGRIGYADSVK | VGLGGGYFDY, the assay gave 6.18, nd, nd. The variant GFTIDDYAMH | GYSWNSGSIGYADSVK | VGWGGGYFDY showed nd, nd, nd. The variant GFTFDDYAMH | GISWNSGSIGYADSVK | VGSGGGYFDY gave 1.58, 1.56, 1.14. The variant GFTFDDYAMH | GISWNSGSFGYADSVK | VKYGGGYFDY showed nd, nd, nd. The variant GFTFDDYAMH | GISWNQPSIGYADSVK | VGVGGGYFDY showed nd, nd, nd. The variant GFTFDDYAMH | GISKFSGSIGYADSVK | VGAGGGYFDY gave nd, nd, 1.97. The variant GFTFDDNAMH | GISWNSGSIGYADSVK | VGNGGHYFDY showed 4.75, 4.22, 4.75.

For GFTFDDYAMH | GISWNSGSIGCADSVK | VGIGGGKFDY, the assay gave nd, nd, nd.

The opening 4 entries, copied out:

CDR-H1	CDR-H2	CDR-H3	log10 Kd (nM) by replicate
GFTFDDYAMH	GISWNSGSIGYWDSVK	VNWGGGYFDY	nd, nd, nd
GFTFDDYAMC	GISWNSGSIGYADSVK	VGYGGGYFCY	3.50, nd, nd
GFTFDDNAMH	GISWNSGSIGYADSVK	VGDGGGYFDY	3.61, 4.61, nd
WFTFDDYAMH	GISWNSGSILYADSVK	VGPGGGYFDY	nd, nd, nd